Test results taken from paper PMC4759478 (2016).

The chains behind the UniProt entries cited, without tags or fusion partners. Residues count along the entry.
UniProt P00533, 25-1210: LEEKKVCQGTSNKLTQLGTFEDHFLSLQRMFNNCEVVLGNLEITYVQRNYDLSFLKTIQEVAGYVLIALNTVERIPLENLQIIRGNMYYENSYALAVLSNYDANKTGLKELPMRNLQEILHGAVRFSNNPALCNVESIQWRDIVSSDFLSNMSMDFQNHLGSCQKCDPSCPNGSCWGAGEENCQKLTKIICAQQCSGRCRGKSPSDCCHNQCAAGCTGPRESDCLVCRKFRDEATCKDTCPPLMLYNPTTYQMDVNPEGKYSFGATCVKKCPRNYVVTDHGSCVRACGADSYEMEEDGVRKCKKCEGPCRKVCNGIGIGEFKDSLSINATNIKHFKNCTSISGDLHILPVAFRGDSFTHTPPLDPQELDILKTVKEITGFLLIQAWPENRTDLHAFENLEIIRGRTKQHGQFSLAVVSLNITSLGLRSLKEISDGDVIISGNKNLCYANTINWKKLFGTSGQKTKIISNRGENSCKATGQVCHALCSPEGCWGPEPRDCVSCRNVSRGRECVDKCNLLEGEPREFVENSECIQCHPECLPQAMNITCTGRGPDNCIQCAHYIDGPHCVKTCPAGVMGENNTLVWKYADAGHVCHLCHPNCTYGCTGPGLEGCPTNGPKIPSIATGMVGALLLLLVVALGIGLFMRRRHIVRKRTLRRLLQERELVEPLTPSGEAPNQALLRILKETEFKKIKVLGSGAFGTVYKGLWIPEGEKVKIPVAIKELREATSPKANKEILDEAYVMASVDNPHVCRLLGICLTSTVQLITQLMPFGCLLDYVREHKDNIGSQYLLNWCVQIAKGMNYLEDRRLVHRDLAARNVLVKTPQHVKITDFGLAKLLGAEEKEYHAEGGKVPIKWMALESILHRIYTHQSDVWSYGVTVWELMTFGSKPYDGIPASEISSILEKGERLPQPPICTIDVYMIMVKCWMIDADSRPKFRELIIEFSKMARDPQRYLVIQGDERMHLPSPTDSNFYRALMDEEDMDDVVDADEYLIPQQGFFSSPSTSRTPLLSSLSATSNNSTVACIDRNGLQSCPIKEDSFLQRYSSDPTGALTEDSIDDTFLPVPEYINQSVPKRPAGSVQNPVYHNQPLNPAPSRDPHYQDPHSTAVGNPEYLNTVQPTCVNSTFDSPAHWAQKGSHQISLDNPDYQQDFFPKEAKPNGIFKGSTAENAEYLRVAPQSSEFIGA

Molecular target: recombinant EGFR kinase (Homo sapiens, UniProt P00533)
Experiment: biochemical

Structure (SMILES): COc1cc2ncnc(Nc3cccc(Cl)c3)c2cc1OC [AG1478]
- IC50: 1.6 nM
